Source: patent publication US8501991B2, “P53 activating compounds” (University Court of the University of Dundee, priority 2006, dated 2013)

The chains behind the UniProt entries cited, without tags or fusion partners. Where a name states a change or a piece, a line headed by the entry shows the natural chain unless it says otherwise.
UniProt Q96EB6: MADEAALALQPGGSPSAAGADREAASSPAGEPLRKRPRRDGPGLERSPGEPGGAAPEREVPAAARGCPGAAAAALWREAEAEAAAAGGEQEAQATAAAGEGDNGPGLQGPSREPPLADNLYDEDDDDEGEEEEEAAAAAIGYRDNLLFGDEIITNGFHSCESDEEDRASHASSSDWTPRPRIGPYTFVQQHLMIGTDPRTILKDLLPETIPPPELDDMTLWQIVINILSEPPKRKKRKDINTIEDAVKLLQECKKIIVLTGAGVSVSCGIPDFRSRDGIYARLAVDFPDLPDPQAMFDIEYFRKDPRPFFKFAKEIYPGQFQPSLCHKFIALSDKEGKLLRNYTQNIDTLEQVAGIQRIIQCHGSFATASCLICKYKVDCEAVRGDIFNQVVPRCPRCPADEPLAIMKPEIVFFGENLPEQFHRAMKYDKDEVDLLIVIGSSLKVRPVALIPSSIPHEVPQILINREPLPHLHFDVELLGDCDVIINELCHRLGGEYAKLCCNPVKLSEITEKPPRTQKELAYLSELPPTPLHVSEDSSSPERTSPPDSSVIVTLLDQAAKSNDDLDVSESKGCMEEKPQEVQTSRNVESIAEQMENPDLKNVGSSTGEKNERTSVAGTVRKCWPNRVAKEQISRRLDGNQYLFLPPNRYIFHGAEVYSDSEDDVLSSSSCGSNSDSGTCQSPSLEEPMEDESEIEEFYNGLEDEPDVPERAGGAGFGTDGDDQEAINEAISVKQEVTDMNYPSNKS

What was measured:
[1] = test system: p53-dependent transcription; test: p53-dependent transcription in T22 RGC-ΔFos-lacZ cells (primary screen, beta-galactosidase/CPRG); format: cell-based; conditions: JJ91 activity taken as 100%
SirT1 = SirT1 (Homo sapiens (Human), UniProt Q96EB6); test: In vitro deacetylation assay (Fluor de Lys SirT1 Fluorescent Activity Assay); format: biochemical

CN(C)CCCCC(=O)Nc1ccc(NC(=S)NC(=O)c2ccc(C(C)(C)C)cc2)cc1.Cl [Tenovin 6, 5-Dimethylamino-pentanoic acid {4-[3-(4-tert-butyl-benzoyl)-thioureido]-phenyl}-amide hydrochloride]
Bioactivity (relative to JJ91) [1]: Active (63.8%) | inhibition of SirT1 activity (in words) (SirT1): particularly effective in inhibiting SirT1 activity
